Molecular target: T1, Aldehyde dehydrogenase, mitochondrial (Homo sapiens, UniProt P05091)
T1 sequence (P05091 whole entry): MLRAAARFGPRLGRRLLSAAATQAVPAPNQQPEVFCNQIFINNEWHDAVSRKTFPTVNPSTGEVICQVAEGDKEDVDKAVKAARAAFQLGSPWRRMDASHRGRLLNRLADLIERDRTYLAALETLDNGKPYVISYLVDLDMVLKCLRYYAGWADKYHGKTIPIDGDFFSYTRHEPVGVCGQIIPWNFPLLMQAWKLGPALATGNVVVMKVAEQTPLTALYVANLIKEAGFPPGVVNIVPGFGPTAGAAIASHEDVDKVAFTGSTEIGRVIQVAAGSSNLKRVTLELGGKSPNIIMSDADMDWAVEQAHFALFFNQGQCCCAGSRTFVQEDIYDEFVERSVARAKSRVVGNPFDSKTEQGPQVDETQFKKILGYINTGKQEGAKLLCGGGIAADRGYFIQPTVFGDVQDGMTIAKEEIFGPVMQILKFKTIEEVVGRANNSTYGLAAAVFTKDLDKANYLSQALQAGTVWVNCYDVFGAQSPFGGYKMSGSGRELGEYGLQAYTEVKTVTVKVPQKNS
Experiment: Inhibition of human ALDH2 using propionaldehyde as substrate preincubated for 2 mins followed by substrate addition by spectrophotometry in presence of NAD+

IC50: 100 nM
Structure (SMILES): O=C1C(=O)N(C/C=C/c2ccccc2)c2ccc(Cl)cc21

Source: ChEMBL document CHEMBL3124874, “Development of selective inhibitors for aldehyde dehydrogenases based on substituted indole-2,3-diones” (J Med Chem, 2014)
